ERAP1 inh – blocks human ERAP1 aminopeptidase activity. Q9NZ08. recombinant ERAP1, Leu-AMC fluorescence, 60 min. inhibition, % at 10.7 µM. 340,000 tested, 0.15% active;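 active means mean replicate inhibition of at least 30%, or all replicates individually reaching that 30% level; inactive means mean below 30% and not every replicate reaching it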
UUG fidelity – modulators of start codon recognition fidelity in yeast; S. cerevisiae UUG-firefly luciferase reporter, luminescence/redox ratio; AID 602363; 350,000 tested, 0.13% active; activity score, % at 18.7 µM;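 active = replicate mean at a twofold rise or more, about +100% in these data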;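 also: firefly luciferase made from a UUG start codon reports start codon fidelity; reporter light over untreated wells divided by growth signal over untreated wells; some hits fall short of that in this replicate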
ARNT TACC3 PPI – disrupts binding between human ARNT and TACC3. AlphaScreen His-ARNT PAS-B/GST-TACC3 binding, luminescence; TACC3 fragment carries E629A point mutation. Q9Y6A5. inhibition, % at 9.99 µM. 390,000 tested, 0.66% active;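 active means mean inhibition of replicates at least 50% and at least half of replicates each reaching 50%; inconclusive means half or more replicates reach 50% but mean below 50%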
S100A4 MyoIIA – blocks human S100A4 binding to myosin IIA peptide | P26447 | S100A4/TAMRA-MyoIIA peptide fluorescence polarization | inhibition, % at 10.7 µM | 360,000 tested, 0.14% active | AID 652163;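 active means mean inhibition of at least 70% across replicates, with every replicate also reaching that level; inconclusive means mean inhibition reaches 70% but some replicates fall short; inactive means mean inhibition below 70%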
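Test system – S100A4 monomer (human) · Compound – single-point compound testing · Schedule – 5 min incubation before reading · Probe or stimulus – TAMRA-labelled myosin IIA heavy-chain peptide probe, 5 nM · Benchmarks – neutral control DMSO, positive control TFP · Medium – Calcium-containing HEPES buffer, pH 7.2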
AF4-AF9 inh – MLL-AF4/AF9 protein interaction inhibition; AlphaScreen, biotin-AF4 peptide binding to FLAG-AF9; inhibition, % at 10 µM; 350,000 tested, 0.47% active; AID 651704;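 active means every replicate reaching a set inhibition limit, whatever the replicate mean, cut at about 25% in these data; inconclusive means mean inhibition reaches that limit but some replicates miss it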
E-sel inducer – induces E-selectin expression in human endothelial cells. activation, % at 7.58 µM. AID 686992. 260,000 tested, 0.37% active. HUVEC E-selectin immunofluorescence imaging; normalized: neutral wells 0, TNF-alpha wells 100;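 active means mean E-selectin-positive cell signal at least 10% of the positive control, reached in at least 60% of replicates, without over 20% cell loss; inconclusive means no rule given, readout overlaps actives, possibly toxicity-flagged; inactive means the rest, including those meeting only one limit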
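assay system = HUVEC, human umbilical vein endothelial cells | input = 3,000 HUVEC seeded per well | medium = EGM-2 growth medium on 0.1% gelatin-coated wells | dosing = one compound dose added by pin transfer | signal = immunofluorescence imaging | read-out basis = % PE-positive cells | control set = TNF-alpha, DMSO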
ARNT Alpha ctr-1 – AlphaScreen artifact in ARNT/TACC3 counter-screen; shares compounds with ARNT TACC3 PPI; His-ARNT PASB-GST AlphaScreen artifact counter-screen, luminescence; AC50, µM (doses to about 68 µM); 1,200 tested, 50% active; AID 651705;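 active means every separate test run was called active for a drop in luminescence, with AC50 within twice the top valid dose, actives reach about 71 µM in these data; inconclusive means the separate test runs disagree in their calls; inactive means all runs inactive, including signal change in the wrong direction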
ARNT Alpha ctr-2 – counter-screen for ARNT-TACC3 inhibitors: AlphaScreen artifacts | shares compounds with ARNT TACC3 PPI | Dual-tagged His-ARNT PASB-GST AlphaScreen artifact counter-screen | AC50, µM | 45 tested, 70% active | AID 720564;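 active means luminescence drop, with half-maximal potency fitted within twice the sample's top valid dose, cut at about 70 µM in these data; inactive means the rest, including signal moving the wrong way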
Hits are given with their value; - = inactive; ? = inconclusive; . = not tested or not shown. Hits are enriched below; roughly 1.3% of the tested compounds scored in any of these assays.

SMILES	ERAP1 inh	UUG fidelity	ARNT TACC3 PPI	S100A4 MyoIIA	AF4-AF9 inh	E-sel inducer	ARNT Alpha ctr-1	others
O=C(NC1CC1)C1CCN(S(=O)(=O)c2cc([N+](=O)[O-])ccc2Cl)CC1	-	-	-	-	-	-	.
Cc1nnc(NC(=O)c2ccc(S(=O)(=O)N3CCCCCC3)cc2)o1	.	-	-	.	.	.	.
COCC#Cc1cnc2c(c1)C(=O)N([C@H](C)CO)C[C@H](C)[C@@H](CN(C)Cc1ccc3c(c1)OCO3)O2	-	-	-	-	-	-	.
CCCNC(=O)[C@@H]1[C@@H](CO)[C@@H]2Cn3c(ccc(-c4cccc(F)c4)c3=O)[C@H]1N2CCC	-	.	-	-	-	-	.
Cc1ccc(S(=O)(=O)N(C)C[C@@H]2Oc3ccc(N(C)C)cc3CC(=O)N([C@H](C)CO)C[C@@H]2C)cc1	-	-	-	-	-	-	.
c1ccc(-c2nnc(-c3ccccn3)nc2NCC2CCCCC2)cc1	.	.	.	.	.	.	3.1µM
c1ccc(-c2nnc(-c3ccccn3)nc2NCC2CC2)cc1	.	.	.	.	.	.	1µM
c1ccc(-c2nc(NCC3CC3)nc3ccsc23)cc1	-	.	.	-	-	-	.
c1ccc(-c2cc3nc(NCC4CC4)nc(NCC4CCCCC4)c3s2)cc1	-	-	.	-	-	-	.
C[C@H](CO)N1C[C@H](C)[C@@H](CN(C)S(=O)(=O)c2cn(C)cn2)Oc2ccc(NS(=O)(=O)c3ccc(F)cc3)cc2C1=O	-	.	.	-	-	-	.
CSc1ccc(-c2nnc(NC(=O)c3ccc(S(=O)(=O)N4CCC(C)CC4)cc3)o2)cc1	.	.	.	.	.	.	.	ARNT Alpha ctr-2=59
CC1CCN(S(=O)(=O)c2ccc(C(=O)Nc3nnc(-c4ccco4)o3)cc2)CC1	-	-	-	-	-	-	.	ARNT Alpha ctr-2=-
COc1cccc(C#Cc2cnc3c(c2)C(=O)N([C@H](C)CO)C[C@H](C)[C@@H](CN(C)C)O3)c1	-	-	.	-	-	-	.
C[C@@H]1CCCCO[C@@H](CN(C)S(=O)(=O)c2cccs2)[C@@H](C)CN([C@H](C)CO)C(=O)c2cc(NC(=O)Nc3ccccc3)ccc2O1	-	-	-	-	-	.	.
C[C@@H]1CN([C@@H](C)CO)C(=O)c2cc(NC(=O)NC3CCCCC3)ccc2O[C@@H](C)CCCCO[C@@H]1CN(C)C(=O)Cc1ccccc1	.	-	-	.	.	-	.
O=C(NCC1CCCCC1)[C@H]1[C@H](CO)[C@H]2Cn3c(cccc3=O)[C@H]2N1Cc1ccccn1	-	.	-	-	-	-	.
CCOc1cc(/C=N/NC(=O)CSc2cccc3cccnc23)ccc1O	-	.	63	-	-	.	-
Cn1c(SCC(=O)N/N=C/c2ccncc2)nc2ccccc21	-	.	-	-	-	-	.
O=C(CSc1cccc2cccnc12)N/N=C/c1ccncc1	-	.	62	-	-	.	-
CCOc1cc(/C=N/NC(=O)C(C)Sc2ccccn2)ccc1O (stereo not drawn)	.	.	-	.	.	-	.
O=C(C[C@@H]1CC[C@H]2[C@@H](COC[C@@H](O)CN2CC2CCOCC2)O1)NCC1CCCCC1	-	.	-	-	-	-	.
Clc1ccc(SCc2cc(N3CCOCC3)nc(-c3ccccn3)n2)cc1	-	.	60	-	-	.	-
O=c1cc(CSc2ccc(Cl)cc2)nc(-c2ccccn2)[nH]1	-	-	61	-	-	-	53µM
C[C@H]1CN([C@@H](C)CO)C(=O)c2cc(NC(=O)CCC(F)(F)F)ccc2O[C@@H]1CN(C)Cc1ccc(Cl)c(Cl)c1	-	.	-	-	-	-	.
CC(C)NC(=O)N(C)C[C@H]1Oc2cc(C#CCN(C)C)ccc2S(=O)(=O)N([C@@H](C)CO)C[C@H]1C	-	-	-	-	-	-	.
SMILES	ERAP1 inh	UUG fidelity	ARNT TACC3 PPI	S100A4 MyoIIA	AF4-AF9 inh	E-sel inducer	ARNT Alpha ctr-1	others
Oc1cccc2c(-c3nn[nH]n3)ccnc12	.	-	68	-	-	-	10µM
c1ccc2c(-c3nn[nH]n3)cccc2c1	.	.	-	.	.	-	.
O=C(CCC(=O)c1cccs1)OCc1nnc(-c2ccccc2)o1	.	-	33	.	.	.	-
Cc1ccc(C(=O)CCC(=O)OCc2nnc(-c3ccccc3)o2)cc1	-	-	-	-	-	.	.
O=C(C[C@H]1CC[C@H](NC(=O)NC2CCCCC2)[C@@H](CO)O1)NCc1ccc(F)cc1	-	-	-	-	-	-	.
C[C@H](CO)N1C[C@H](C)[C@H](CN(C)Cc2ccc(C(F)(F)F)cc2)Oc2c(NC(=O)NC3CCCCC3)cccc2C1=O	-	-	-	-	-	-	.
O=C1C=C(O)c2cccc(O)c2C1=O	-	-	52	-	-	.	-
O=C1C=C(c2c(O)ccc3ccccc23)c2ccccc2C1=O	-	.	-	-	-	-	.
Cc1sc2ncnc(N/N=C/c3ccccc3O)c2c1C	.	-	54	.	.	.	41µM
Cc1sc2ncnc(N/N=C/c3ccc(O)cc3)c2c1C	-	-	-	-	?	.	.
Cc1ccc(CNc2ccc3nnc(-c4ccccc4)n3n2)cc1	-	-	-	-	-	?	.
c1ccc(CN2CCN(CCCNc3ccc4nnc(-c5ccccc5)n4n3)CC2)cc1	.	-	57	.	.	.	71µM
Cc1cc(C)n2c(Nc3c(C)cccc3C)c(-c3ccccn3)nc2n1	-	.	.	-	-	-	.
Cc1cccc(C)c1Nc1c(-c2ccccn2)nc2ccccn12	-	-	65	-	.	-	18µM
Cc1ccc(Nc2c(-c3ccccn3)nc3cccc(C)n23)cc1	-	-	56	-	?	.	20µM
Cc1cccc2nc(-c3ccco3)c(Nc3ccccc3)n12	-	-	-	-	-	-	.
CN(C)S(=O)(=O)N1CCN(S(=O)(=O)c2ccc(F)cc2)CC1	.	-	51	.	.	.	-
Cc1ccc(S(=O)(=O)N2CCN(S(=O)(=O)N(C)C)CC2)cc1	.	-	-	.	.	.	.
O=S(=O)(c1ccccc1)N1C[C@H]2[C@@H](c3ccccc31)[C@@H](CO)N2Cc1ccccn1	-	-	27	-	-	-	-
O=c1[nH]c(Nc2ccccc2)cc2cc(Br)ccc12	-	-	-	-	-	-	.
CC(=O)c1cccc(-c2ccc3c(=O)[nH]c(Nc4ccccc4)cc3c2)c1	-	-	33	-	-	-	-
C[C@H]1CN([C@@H](C)CO)C(=O)c2cccc(NC(=O)Nc3ccc4c(c3)OCO4)c2O[C@H]1CN(C)C(=O)Nc1cccc2ccccc12	-	-	.	-	-	-	.
O=C(O)c1ccc(C2CCCCC2)cn1	.	-	63	.	.	.	-
C=CCn1c(Cc2csc(N)n2)nnc1SCC(=O)Nc1ccc(C(=O)OCC)cc1	.	-	61	.	.	.	-
Cc1ccc(S(=O)(=O)NC(=O)c2cc(C)n(CCCn3ccnc3)c2C)cc1	.	-	53	.	.	.	-
CC(=O)Nc1cccc(C(=O)O)n1	-	.	59	-	-	.	-

Screening results (PubChem BioAssay)
